Assay results taken from PubChem BioAssay AID1321 (The Scripps Research Institute Molecular Screening Center, 2008).
This is a selection; strong and weak results do not stand in their true shares. The source made the active and inactive calls.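 The calls were made as follows: active = activation above the mean of all tested compounds plus 3 SD, set per screening run (cut at about 8.8% in these data); inactive = the rest.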

The chains behind the UniProt entries cited, without tags or fusion partners.
UniProt P30291, whole entry K328M: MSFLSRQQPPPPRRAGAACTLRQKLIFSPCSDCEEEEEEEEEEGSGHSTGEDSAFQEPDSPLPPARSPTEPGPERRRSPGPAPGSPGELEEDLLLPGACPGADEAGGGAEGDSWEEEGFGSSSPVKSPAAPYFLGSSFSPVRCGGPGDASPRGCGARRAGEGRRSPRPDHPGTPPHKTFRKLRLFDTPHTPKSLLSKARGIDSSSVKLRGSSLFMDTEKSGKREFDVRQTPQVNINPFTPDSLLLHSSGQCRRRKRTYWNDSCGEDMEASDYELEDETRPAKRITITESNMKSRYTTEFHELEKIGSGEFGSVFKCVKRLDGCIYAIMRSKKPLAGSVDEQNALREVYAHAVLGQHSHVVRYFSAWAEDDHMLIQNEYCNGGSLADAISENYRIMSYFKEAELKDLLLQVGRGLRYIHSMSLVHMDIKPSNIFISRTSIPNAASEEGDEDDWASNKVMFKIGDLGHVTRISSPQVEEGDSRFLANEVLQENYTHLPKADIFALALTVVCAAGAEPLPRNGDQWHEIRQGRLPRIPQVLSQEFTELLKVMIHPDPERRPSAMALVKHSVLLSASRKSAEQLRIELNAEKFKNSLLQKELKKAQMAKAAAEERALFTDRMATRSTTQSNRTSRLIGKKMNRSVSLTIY

These compounds were tested against Wee1-like protein kinase (Homo sapiens) (UniProt P30291) (assay: compounds stabilizing Wee1-luciferase fusion – cell-based, HeLa, Wee1K328M-luciferase, luminescence, primary screen (AID 1321;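 also: cells exposed to compound for 20 h before luminescence read; 0% = DMSO alone and 100% = MG132 at 30 µM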)). Conditions: HeLa Luc-Wee1K328M stability, at 5 µM, stronger effect = higher value, 100% = proteasome inhibitor MG132 effect.
With `O=[N+]([O-])c1cc([N+](=O)[O-])c(-n2nnc3ccccc32)c([N+](=O)[O-])c1` the reporter increase was inactive: -4%.
For `Cc1nc2ccc3ccccc3c2s1.O=[N+]([O-])c1cc([N+](=O)[O-])c(O)c([N+](=O)[O-])c1`, the reporter increase was inactive: -2.34%.
`CCOC(=O)C(CC)C1=NC(C)(C)Cc2ccccc21.O=[N+]([O-])c1cc([N+](=O)[O-])c(O)c([N+](=O)[O-])c1` (configuration not stated) was tested, and the reporter increase was inactive: -0.02%.
With `O=[N+]([O-])c1cc([N+](=O)[O-])c(Nc2nnnn2CCO)c([N+](=O)[O-])c1` the reporter increase was inactive: 0.19%.
`CCCOc1ccc(NP(C)(=O)Oc2ccc(Cl)cc2)cc1` (configuration not stated) was tested, and the reporter increase was inactive: -1.56%.
With `CP(=O)(Nc1ccc(SC(F)(F)F)cc1)Oc1ccccc1` (configuration not stated) the reporter increase was inactive: -2.8%.
`COc1ccccc1OP(C)(=O)Nc1c(C)cccc1C` (configuration not stated) was tested, and the reporter increase was inactive: 2.69%.
For `CN1CCCCC1COC(=O)C1(O)c2ccccc2CCc2ccccc21` (configuration not stated), the reporter increase was inactive: 1.11%.
In the case of `O=C(O)c1cccc(Nc2c([N+](=O)[O-])cc([N+](=O)[O-])cc2[N+](=O)[O-])c1`, the reporter increase was inactive: -1.59%.
In the case of `CC1=NCCc2c1[nH]c1ccccc21.O=[N+]([O-])c1cc([N+](=O)[O-])c(O)c([N+](=O)[O-])c1`, the reporter increase was inactive: -1.91%.
With `CCOC(=O)c1ccc(NP(C)(=O)Oc2cc(C)cc(C)c2)cc1` (configuration not stated) the reporter increase was inactive: -1.41%.
For `Cc1cc(C)cc(OP(C)(=O)Nc2ccc(C)cc2C)c1` (configuration not stated), the reporter increase was inactive: -1.67%.
In the case of `COc1ccccc1OP(C)(=O)Nc1cccc(Br)c1` (configuration not stated), the reporter increase was inactive: 0.15%.
`Cc1ccc(C)c(NP(C)(=O)Oc2ccccc2)c1` (configuration not stated) was tested, and the reporter increase was inactive: -1.88%.
In the case of `Cc1cc(C)cc(OP(C)(=O)Nc2ccccn2)c1` (configuration not stated), the reporter increase was inactive: -0.93%.
`CP(=O)(Nc1cccc(Br)c1)Oc1ccccc1` (configuration not stated) was tested, and the reporter increase was inactive: 1.64%.
With `CCN(CC)CCCOC(=O)C(O)(c1ccccc1)c1ccccc1` the reporter increase was inactive: -0.56%.
For `O=[N+]([O-])c1ccc2c(c1)C=Nc1ccccc1O2`, the reporter increase was inactive: -1.08%.
`Cc1cccc(C)c1OP(C)(N)=O` (configuration not stated) was tested, and the reporter increase was inactive: 0.18%.
For `CC(C)(C)c1ccc(OP(C)(=O)Nc2ccc(SC(F)(F)F)cc2)cc1` (configuration not stated), the reporter increase was inactive: 4.46%.
For `Cc1cc(C)cc(OP(C)(N)=O)c1` (configuration not stated), the reporter increase was inactive: -0.19%.
With `COc1ccc(OP(C)(=O)Nc2cccc(F)c2)cc1` (configuration not stated) the reporter increase was inactive: 0.36%.
With `COc1ccccc1OP(C)(=O)Nc1cc(Cl)ccc1C` (configuration not stated) the reporter increase was inactive: -2.51%.
In the case of `Cc1ccc(NP(C)(=O)Oc2ccccc2)c(C)c1` (configuration not stated), the reporter increase was inactive: 0.27%.
`COc1ccccc1OP(C)(=O)Nc1ccc(C)cc1` (configuration not stated) was tested, and the reporter increase was inactive: -2.35%.
With `CCOC(=O)c1ccc(NP(C)(=O)Oc2ccccc2)cc1` (configuration not stated) the reporter increase was inactive: 3.59%.
`CP(=O)(Nc1ccccc1Br)Oc1ccccc1` (configuration not stated) was tested, and the reporter increase was inactive: 1.91%.
In the case of `COc1ccccc1OP(C)(=O)Nc1ccccc1` (configuration not stated), the reporter increase was inactive: -3.1%.
For `CP(=S)(Nn1cnnc1)Oc1ccccc1` (configuration not stated), the reporter increase was inactive: -1.11%.
For `Cc1cc(C)cc(OP(C)(=O)Nc2ccc(SC(F)(F)F)cc2)c1` (configuration not stated), the reporter increase was inactive: -2.1%.
For `CP(=O)(NC(=O)Nc1ccccc1)Oc1ccccc1` (configuration not stated), the reporter increase was inactive: -2.3%.
For `CCc1ccc(OP(C)(=O)N2CCN(c3ccc([N+](=O)[O-])cc3)CC2)cc1` (configuration not stated), the reporter increase was inactive: 1.75%.
In the case of `CP(=O)(Oc1ccccc1)OC(c1ccccc1)C(F)(F)F` (configuration not stated), the reporter increase was inactive: 2.2%.
In the case of `Cc1cccc(C)c1OP(C)(=O)Nc1ccc(SC(F)(F)F)cc1` (configuration not stated), the reporter increase was inactive: -0.6%.
For `CP(=O)(Nc1ccc(SC(F)(F)F)cc1)Oc1ccc(Cl)cc1` (configuration not stated), the reporter increase was inactive: 4.93%.
`CP(=O)(Nc1ccccn1)Oc1ccc(Cl)cc1` (configuration not stated) was tested, and the reporter increase was inactive: -0.89%.
In the case of `CCOC(=O)c1ccc(NP(C)(=O)Oc2ccc(OC)cc2)cc1` (configuration not stated), the reporter increase was inactive: -3.92%.
For `CCOP(C)(=S)SCC(=O)NC(C)C(=O)O` (configuration not stated), the reporter increase was inactive: -3.67%.
With `O=C(OCCCN1CCCC1)C(O)(c1ccccc1)C1CCCCC1` (configuration not stated) the reporter increase was inactive: 3.42%.
In the case of `COc1ccccc1OP(C)(=O)Nc1c(C)n(C)n(-c2ccccc2)c1=O` (configuration not stated), the reporter increase was inactive: -0.29%.
In the case of `CCc1ccc(OP(C)(=O)Nc2cccnc2)cc1` (configuration not stated), the reporter increase was inactive: -1.72%.
In the case of `CP(=O)(Oc1ccccc1)N1CCOC1=O` (configuration not stated), the reporter increase was inactive: -0.94%.
For `COc1ccc(OP(C)(=O)Nc2ccc(Br)cc2)cc1` (configuration not stated), the reporter increase was inactive: 4.13%.
For `CCN(CC)CC(O)COC(=O)C(O)(c1ccccc1)C1CCCCC1` (configuration not stated), the reporter increase was inactive: 0.7%.
For `CN(C)C(=O)c1c([N+](=O)[O-])cc([N+](=O)[O-])cc1[N+](=O)[O-]`, the reporter increase was inactive: -1.34%.
`COc1ccccc1OP(C)(=O)Nc1ccccc1Br` (configuration not stated) was tested, and the reporter increase was inactive: -3.42%.
With `CC(C)(C)c1ccc(OP(C)(=O)O)cc1` the reporter increase was inactive: 0.86%.
`CP(=O)(Nc1ccc(Cl)cc1)Oc1ccc(F)cc1` (configuration not stated) was tested, and the reporter increase was inactive: -2.65%.
`CCOC(=O)c1ccc(NP(C)(=O)Oc2ccc(Cl)cc2)cc1` (configuration not stated) was tested, and the reporter increase was inactive: 0.42%.
In the case of `CP(=O)(OC12CC3CC(CC(C3)C1)C2)OC12CC3CC(CC(C3)C1)C2`, the reporter increase was inactive: 3.16%.
For `COc1ccccc1OP(C)(=O)Nc1ccc(C)c(C)c1` (configuration not stated), the reporter increase was inactive: 4.12%.
In the case of `COc1ccc(OP(C)(=O)Nc2ccccc2Br)cc1` (configuration not stated), the reporter increase was inactive: -0.43%.
With `Cc1cc(C)cc(OP(C)(=O)Nc2cccc(C(F)(F)F)c2)c1` (configuration not stated) the reporter increase was inactive: 1.15%.
`CP(=O)(Nc1ccc(Cl)cc1Cl)Oc1ccccc1` (configuration not stated) was tested, and the reporter increase was inactive: -1.74%.
For `CP(=O)(OCCOc1ccccc1)OCCOc1ccccc1`, the reporter increase was inactive: -1.15%.
With `Cc1nc2ccc3ccccc3c2o1.O=[N+]([O-])c1cc([N+](=O)[O-])c(O)c([N+](=O)[O-])c1` the reporter increase was inactive: 5.55%.
In the case of `COc1ccc(OP(C)(=O)Nc2ccccn2)cc1` (configuration not stated), the reporter increase was inactive: -1.5%.
`CN(C)CCOC(=O)C(O)(c1ccccc1)C1CCCC1` (configuration not stated) was tested, and the reporter increase was inactive: -2.72%.
In the case of `COc1ccccc1OP(C)(=O)Nc1ccc(Br)cc1` (configuration not stated), the reporter increase was inactive: -1.66%.
With `COc1ccccc1OP(C)(=O)Nc1ccc(C)cc1C` (configuration not stated) the reporter increase was inactive: 0.01%.
For `CP(=O)(Nc1ccccn1)Oc1ccccc1` (configuration not stated), the reporter increase was inactive: -2.18%.
`CCc1ccc(OP(C)(=O)O)cc1` was tested, and the reporter increase was inactive: -0.6%.
With `Cc1c(NP(C)(=O)Oc2ccc(C(C)C)cc2)c(=O)n(-c2ccccc2)n1C` (configuration not stated) the reporter increase was inactive: 1.35%.
With `CP(=O)(Nc1ccccc1F)Oc1ccccc1` (configuration not stated) the reporter increase was inactive: 3.29%.
`CC(C)c1ccc(OP(C)(=O)Nc2ccc(SC(F)(F)F)cc2)cc1` (configuration not stated) was tested, and the reporter increase was inactive: -1.91%.
`O=C(OC1CN2CCC1CC2)c1ccc([N+](=O)[O-])cc1` (configuration not stated) was tested, and the reporter increase was inactive: -2.27%.
For `O=C(OCCN1CCN(CCOCc2ccccc2)CC1)C(O)(c1ccccc1)c1ccccc1`, the reporter increase was inactive: -3.05%.
In the case of `CCOC(=O)c1ccc(NP(C)(=O)Oc2ccc(F)cc2)cc1` (configuration not stated), the reporter increase was inactive: 1.18%.
With `COc1ccc(OP(C)(=O)Nc2ccc(SC(F)(F)F)cc2)cc1` (configuration not stated) the reporter increase was inactive: -1.72%.
With `CP(=O)(Nc1ccccc1)Oc1ccc(F)cc1` (configuration not stated) the reporter increase was inactive: 4.17%.
`CCCCCOc1ccc(NP(C)(=O)Oc2ccc(Cl)cc2Cl)cc1` (configuration not stated) was tested, and the reporter increase was inactive: -2.94%.
In the case of `CCN(CC)CCCOC(=O)C(O)(c1ccccc1)C1CCCCC1` (configuration not stated), the reporter increase was inactive: -1.05%.
In the case of `CN(C)CCOC(=O)C(O)(c1ccccc1)C1CCCCC1` (configuration not stated), the reporter increase was inactive: -1.97%.
For `COc1ccc(NP(C)(=O)Oc2ccccc2OC)cc1` (configuration not stated), the reporter increase was inactive: -0.04%.
For `COc1ccc(OP(C)(=O)Nc2cccc(Br)c2)cc1` (configuration not stated), the reporter increase was inactive: 0.82%.
In the case of `O=[N+]([O-])c1ccc(OP2(=O)COCCO2)cc1` (configuration not stated), the reporter increase was inactive: -2.48%.
In the case of `O=[N+]([O-])c1cc([N+](=O)[O-])c(NCC2CCS(=O)(=O)C2)c([N+](=O)[O-])c1` (configuration not stated), the reporter increase was inactive: -1.03%.
With `Cc1cc(-c2cccc3ccccc23)c(C)cn1.O=[N+]([O-])c1cc([N+](=O)[O-])c(O)c([N+](=O)[O-])c1` the reporter increase was inactive: 3.22%.
`CCOP(C)(=S)SCC(=O)NC(C)(CC)C(=O)O` (configuration not stated) was tested, and the reporter increase was inactive: -2.57%.
In the case of `CP(=O)(Nc1ccc(SC(F)(F)F)cc1)Oc1ccc(F)cc1` (configuration not stated), the reporter increase was inactive: -0.4%.
In the case of `Cc1ccccc1NP(C)(=O)Nc1ccccc1C`, the reporter increase was inactive: 3.96%.
For `CP(=O)(Nc1ccc2c(c1)OCCO2)Oc1ccccc1` (configuration not stated), the reporter increase was inactive: 0.3%.
